# AlphaSeq binding of Ab-95 light chain variants to a spike HR2 peptide

Reference: Engelhart et al. 2022, doi:10.1038/s41597-022-01779-4. File: FLAb, binding data.

Binding partner: SARS-CoV-2 spike HR2 peptide, sequence PDVDLGDISGINAS.

The variants keep the heavy chain, the linker and the frameworks of Ab-95 (scFv order VH, the linker GGGGSGGGGSGGGGS, VL).
VH: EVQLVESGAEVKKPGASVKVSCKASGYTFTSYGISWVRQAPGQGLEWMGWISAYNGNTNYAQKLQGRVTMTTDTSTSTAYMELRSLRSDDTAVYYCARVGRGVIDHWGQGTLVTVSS
VL: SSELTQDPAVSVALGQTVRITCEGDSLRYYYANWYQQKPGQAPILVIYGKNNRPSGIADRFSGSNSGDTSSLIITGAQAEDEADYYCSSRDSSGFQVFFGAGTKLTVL

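Phage display of a naive human antibody library on the peptide gave the parent. The library (AAYL52) carries one to three amino acid substitutions per variant, with no insertions or deletions. The scFvs were displayed on barcoded MATa yeast, the peptide on MATalpha yeast. After mating in shaken culture at 30 °C for 16 h, diploids were selected and their barcode pairs sequenced. The ratio of observed to expected reads was calibrated, replicate by replicate, on BCL2-family standards whose Kd was known from biolayer interferometry. The assay was run in three technical replicates.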

Substitutions are numbered in sequence along the VL above, starting at 1 (not Kabat). All variants listed here change A32 of the VL, counted from its first residue. Values are apparent Kd, the geometric mean of the replicates that gave a signal; lower means stronger binding. An entry "nd" has no value in the source: the pair was not observed among the diploids in any replicate. This suggests poor binding but is not conclusive. The list is sorted by this average, lowest first, undetected variants last.

For R28F+A32I+R53V, the assay gave 12 nM (3 of 3 replicates; controls 4 of 9).
For A32P, the assay gave 52 nM (3 of 3 replicates; controls 5 of 9).
For D25P+A32P+S92Y, the assay gave 54 nM (3 of 3 replicates; controls 0 of 9).
For Y31A+A32P+N33R, the assay gave 180 nM (3 of 3 replicates; controls 3 of 9).
For A32S+S55Y+S88C, the assay gave 610 nM (3 of 3 replicates; controls 2 of 9).
For E23K+A32D+K50A, the assay gave 850 nM (3 of 3 replicates; controls 5 of 9).
For Y30D+A32M+S93D, the assay gave 860 nM (3 of 3 replicates; controls 3 of 9).
For E23K+A32P+R90V, the assay gave 1.0 µM (3 of 3 replicates; controls 1 of 9).
For A32N+N33K+R90K, the assay gave 1.2 µM (2 of 3 replicates; controls 3 of 9).
For A32C+S55L+F95K, the assay gave 1.5 µM (2 of 3 replicates; controls 1 of 9).
For S26E+A32P+N52G, the assay gave 1.8 µM (3 of 3 replicates; controls 1 of 9).
For E23R+A32S+F98K, the assay gave 2.7 µM (3 of 3 replicates; controls 2 of 9).
For Y29H+A32H+S55T, the assay gave 3.1 µM (2 of 3 replicates; controls 2 of 9).
For E23N+A32M+G94A, the assay gave 3.3 µM (1 of 3 replicates; controls 4 of 9).
For A32P+K50F+P54D, the assay gave 3.6 µM (3 of 3 replicates; controls 0 of 9).
For Y29W+A32K+K50S, the assay gave 5.6 µM (2 of 3 replicates; controls 1 of 9).
For D25W+S26W+A32Y, the assay gave 7.2 µM (1 of 3 replicates; controls 4 of 9).
For A32Y+K50W+V97W, the assay gave 8.3 µM (2 of 3 replicates; controls 3 of 9).
For A32S+Q96I, the assay gave 8.4 µM (3 of 3 replicates; controls 1 of 9).
For A32C+K50I+Q96Y, the assay gave 9.6 µM (3 of 3 replicates; controls 3 of 9).
For A32R+N33M+N52R, the assay gave 10 µM (2 of 3 replicates; controls 2 of 9).
For A32L+G49W+F98Q, the assay gave 22 µM (1 of 3 replicates; controls 2 of 9).
For L27Y+A32N+D91H, the assay gave 25 µM (2 of 3 replicates; controls 1 of 9).
For A32L+S88R+S92R, the assay gave 26 µM (3 of 3 replicates; controls 7 of 9).
For A32W+G49S+R53L, the assay gave 30 µM (2 of 3 replicates; controls 0 of 9).
For A32E+S88H+V97S, the assay gave 39 µM (3 of 3 replicates; controls 4 of 9).
For L27G+A32G+R53F, the assay gave 53 µM (2 of 3 replicates; controls 5 of 9).
For A32R+R53E, the assay gave 160 µM (1 of 3 replicates; controls 4 of 9).
For A32M+G49A+P54K, the assay gave 160 µM (1 of 3 replicates; controls 2 of 9).
For A32H+P54H+F95M, the assay gave 210 µM (1 of 3 replicates; controls 3 of 9).
For E23N+A32W+G49W, the assay gave nd (0 of 3 replicates; controls 0 of 9).
For A32I+R90W, the assay gave nd (0 of 3 replicates; controls 3 of 9).
For A32R+R90F, the assay gave nd (0 of 3 replicates; controls 2 of 9).
For A32F+S89P+Q96V, the assay gave nd (0 of 3 replicates; controls 2 of 9).

4 of these entries, quoted again:

{"changes": "A32N+N33K+R90K", "Kd (apparent)": "1.2 µM", "replicates with signal": "2/3", "empty controls": "3/9"}
{"changes": "A32Y+K50W+V97W", "Kd (apparent)": "8.3 µM", "replicates with signal": "2/3", "empty controls": "3/9"}
{"changes": "R28F+A32I+R53V", "Kd (apparent)": "12 nM", "replicates with signal": "3/3", "empty controls": "4/9"}
{"changes": "A32C+K50I+Q96Y", "Kd (apparent)": "9.6 µM", "replicates with signal": "3/3", "empty controls": "3/9"}

Nonspecific signal, from three strains lacking the peptide, appeared in 28% of pairings of library AAYL52, centred on 8.2 µM (5% of these signals below 800 nM); values are not corrected for it. Also given: how often the same scFv was detected with the empty control strains.